System: recombinant HIV-1 RT
Assay: colorimetric Reverse Transcriptase Assay
Assay type: biochemical
Conditions: RT IC50 relative to best inhibitor (NBD-14189)

CC1(C)CC(NC(=O)C(=O)Nc2ccc(Cl)cc2)CC(C)(C)N1 [NBD-556, reference compound]
Fold-change from best inhibitor (IC50): >133
